The record followed here is PMC2033546, “Effects of somatostatin analogue RC-160 and bombesin/gastrin-releasing peptide antagonists on the growth of human small-cell and non-small-cell lung carcinomas in nude mice” (British Journal of Cancer, 1994).

Data set [1] can be described thus: Serum growth hormone (GH) radioimmunoassay in nude mice. The data set is classed as in vivo. As to conditions: both experiments, after chronic treatment, vs controls.
Data set [2] concerns non-SCLC cell line NCI-H157. The data set can be described thus: Growth of H157 non-SCLC xenografts in nude mice. The data set is classed as in vivo, human (xenograft in male athymic nude mice). As to conditions: RC-160 100 µg/day, RC-3095 20 µg/day.
A short description of data set [3]: Body weight of tumour-bearing nude mice. The note with it: Table I, Experiment II (non-SCLC H157), end of experiment; control 26.5 ? 1.0; means ? s.d.
Data set [4] concerns IGF-I receptors in membranes of non-SCLC H157 tumours. The data set can be described thus: IGF-I receptor binding on H157 tumour membranes after in vivo treatment. The arrangement: species or system human.
Data set [5] relates to EGF receptors in membranes of non-SCLC H157 tumours. In words: EGF receptor binding on H157 tumour membranes after in vivo treatment. The arrangement: species or system human.
Data set [6] is described as follows: Serum gastrin radioimmunoassay in nude mice. The data set is classed as in vivo. The note with it: both experiments, after chronic treatment, vs controls.

With “[Ac-D-Nal(2)1, D-Phe(4CI)Y, i>Pal(3)3, ID-Cit', D-Alal?lLH-RH [SB-75]”, the “Serum GH levels (in words)” value in data set [1] was “no changes in levels of GH and gastrin”. Further, the “Growth of H157 non-SCLC tumours (in words)” value in data set [2] (4 weeks s.c., SB-75 100 µg/day per animal, vs control) is “No significant reduction in final tumour volume, tumour weight and tumour growth”. The “Tumour volume, final” value in data set [2] (Table I, Experiment II (non-SCLC H157), 4 weeks s.c. peritumoral, SB-75 100 µg/day per animal, control 1580.3 ? 455.7, means ? s.d., ten animals per group, *P<0.05 vs control) is reported as 1301.0 709.8 (mm)r. Moreover, the Tumour weight in data set [2] (Table I, Experiment II (non-SCLC H157), 4 weeks s.c., SB-75 100 µg/day, control 1.9 ? 0.3, means ? s.d., *P<0.05 vs control) is listed as 1.4 0.7 g. Moreover, the Tumour doubling time in data set [2] (Table I, Experiment II (non-SCLC H157), 4 weeks s.c., SB-75 100 µg/day, control 3.88) was determined as 4.0 days. Besides, the Body weight in data set [3] is on record as 27.0 2.0 g. For the same substance, the “IGF-I maximal binding capacity (Bmax)” value in data set [4] (Table IV, Experiment II (non-SCLC H157), tumour membranes after in vivo treatment, control 257, done once) is 160 fmol mg' protein. Also, in data set [4] (after in vivo treatment), the “IGF-I binding sites on H157 tumours (in words)” value is “No changes in IGF-I binding capacity and affinity”. Besides, the “EGF maximal binding capacity (Bmax)” value in data set [5] (Table IV, Experiment II (non-SCLC H157), tumour membranes after in vivo treatment, control 249, done once) was determined as 192 fmol mg' protein. Also, the “EGF binding capacity on H157 tumours (in words)” value in data set [5] (after in vivo treatment) is “not with bombesin/ GRP antagonist RC-3095 or LH-RH antagonist SB-75”. Moreover, the “Serum gastrin levels (in words)” value in data set [6] is “no changes in levels of GH and gastrin”.
